Measurements published in US20210094920A1, “NR2B LIGANDS; METHOD OF MAKING; AND USE THEREOF” (THE UNITED STATES OF AMERICA, AS REPRESENTED BY THE …, priority 2018, published 2021).

Chains of the proteins cited; added tags and fusions are not shown. Residues count along the entry.
UniProt Q00960, 27-1482: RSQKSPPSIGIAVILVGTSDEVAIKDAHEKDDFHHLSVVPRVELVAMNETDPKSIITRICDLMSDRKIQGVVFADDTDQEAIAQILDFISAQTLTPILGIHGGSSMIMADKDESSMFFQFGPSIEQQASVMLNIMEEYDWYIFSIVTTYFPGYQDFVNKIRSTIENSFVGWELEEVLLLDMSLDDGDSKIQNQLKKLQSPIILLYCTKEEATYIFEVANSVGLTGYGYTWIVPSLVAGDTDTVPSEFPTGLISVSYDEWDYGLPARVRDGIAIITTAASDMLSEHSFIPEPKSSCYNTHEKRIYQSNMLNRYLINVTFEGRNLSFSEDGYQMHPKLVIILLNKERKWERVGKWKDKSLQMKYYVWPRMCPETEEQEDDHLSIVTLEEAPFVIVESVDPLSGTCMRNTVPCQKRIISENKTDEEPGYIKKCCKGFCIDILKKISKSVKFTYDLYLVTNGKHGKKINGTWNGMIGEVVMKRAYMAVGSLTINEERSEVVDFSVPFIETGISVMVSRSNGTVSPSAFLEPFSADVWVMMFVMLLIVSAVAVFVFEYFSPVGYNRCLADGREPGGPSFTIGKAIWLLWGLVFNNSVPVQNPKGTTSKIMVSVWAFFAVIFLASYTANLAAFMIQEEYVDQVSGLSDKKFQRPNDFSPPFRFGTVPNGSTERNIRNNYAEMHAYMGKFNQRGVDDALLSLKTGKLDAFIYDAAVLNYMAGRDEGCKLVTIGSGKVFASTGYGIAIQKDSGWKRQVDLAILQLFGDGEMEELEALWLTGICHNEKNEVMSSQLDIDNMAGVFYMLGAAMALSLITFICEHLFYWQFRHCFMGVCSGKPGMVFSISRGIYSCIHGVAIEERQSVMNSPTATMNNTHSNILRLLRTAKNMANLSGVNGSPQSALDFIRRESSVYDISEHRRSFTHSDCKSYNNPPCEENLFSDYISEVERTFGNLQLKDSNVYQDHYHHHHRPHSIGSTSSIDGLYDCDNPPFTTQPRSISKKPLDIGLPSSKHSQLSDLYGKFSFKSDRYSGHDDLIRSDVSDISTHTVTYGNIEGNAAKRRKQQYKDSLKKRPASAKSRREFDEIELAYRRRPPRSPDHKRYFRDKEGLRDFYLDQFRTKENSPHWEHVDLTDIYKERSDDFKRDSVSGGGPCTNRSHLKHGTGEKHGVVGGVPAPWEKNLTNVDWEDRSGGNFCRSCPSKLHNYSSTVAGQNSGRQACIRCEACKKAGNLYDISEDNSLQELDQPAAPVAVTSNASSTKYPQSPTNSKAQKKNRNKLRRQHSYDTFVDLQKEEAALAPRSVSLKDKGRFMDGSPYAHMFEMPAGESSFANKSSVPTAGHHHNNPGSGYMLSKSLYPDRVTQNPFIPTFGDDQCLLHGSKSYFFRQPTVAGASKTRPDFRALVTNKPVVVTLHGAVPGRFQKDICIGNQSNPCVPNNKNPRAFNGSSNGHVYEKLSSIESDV

Target: NR2B subunits in NMDA receptors (Rattus norvegicus, UniProt P35439+Q00960)
Experiment: PET imaging of brain in rats (baseline, preblock, displacement)
Settings: i.v. at 10 min after radioligand injection

Compound: C[C@@H](CN1CCC(Cc2ccccc2)CC1)[C@@H](O)c1ccc(O)cc1 [Ro 25 6981, 4-[(1R,2S)-3-(4-Benzylpiperidin-1-yl)-1-hydroxy-2-methylpropyl]phenol, reference compound]
- effect of displacement on brain radioactivity washout (radioligand [^11C]NR2B-Me, 0.01-3 mg/kg): accelerated brain radioactivity washout in a dose-dependent manner
- effect of displacement on brain radioactivity washout (radioligand [^11C]NR2B-MeI, 0.01-1.25 mg/kg): accelerated brain radioactivity washout in a dose-dependent manner
